Values quoted from earlier work, collected in publication PMC11881554, “Restoring cefepime activity against multidrug-resistant KPC-producing Klebsiella pneumoniae by combination with boronic acid inhibitors, MB076 and S02030” (Antimicrobial Agents and Chemotherapy, 2025).

Experiments:
[1] = set-up: method as in PMID 32253209; settings: neutropenic animals; cited from earlier work
[2] = healthy adults, cited from earlier work

CO/N=C(\C(=O)N[C@@H]1C(=O)N2C(C(=O)[O-])=C(C[N+]3(C)CCCC3)CS[C@H]12)c1csc(N)n1 [FEP, cefepime]
AUCELF:AUCplasma ratio [1]: 73.4% | ratio of ELF to total plasma concentration ([2]; at 0.5 h): 0.31 ± 0.07 | ratio of ELF to total plasma concentration ([2]; at 10 h): 0.74 ± 0.42

Like-named read-outs stand apart in the source and are kept apart here.
